# Apparent affinities of Ab-91 variants for a coronavirus HR2 peptide

The target is the same throughout: PDVDLGDISGINAS, from the HR2 region of SARS-CoV-2 spike.

Parent: Ab-91, a human scFv built as VL, a 15-residue (Gly4Ser)3 linker, VH. Only the CDRs of the heavy chain vary.
VL: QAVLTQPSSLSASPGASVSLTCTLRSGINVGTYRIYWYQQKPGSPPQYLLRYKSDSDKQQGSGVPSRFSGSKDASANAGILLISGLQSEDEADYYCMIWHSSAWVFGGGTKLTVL
VH: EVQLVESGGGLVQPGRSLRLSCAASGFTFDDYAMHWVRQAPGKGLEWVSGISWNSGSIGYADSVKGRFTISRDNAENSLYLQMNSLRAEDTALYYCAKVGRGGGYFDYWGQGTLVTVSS

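Library AAYL51 holds single substitutions and randomly drawn double and triple substitutions in the CDRs. In AlphaSeq, yeast of one mating type display the scFv and yeast of the other type display the target. After mating in shaken culture at 30 °C for 16 h, diploids were selected and their barcode pairs sequenced. Each replicate has its own calibration line, from reference interactions of the BCL2 family. There are three technical replicates.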

Changes read parent residue, position, new residue, counted from the first residue of the VH shown.
Every variant below is changed at A61 of the VH (sequential numbering).
Values are log10 of the apparent Kd in nM; lower means stronger binding.
Averages over replicates are reported, and they cover detected replicates only.
"nd" means that the variant was in the library but no mating with the target was seen in that replicate; the authors take this as a sign of poor binding, and no number exists.

- W53K A61G R101A -> 2.88, nd, nd
- A61R D107S -> 4.74, 4.33, 3.89 (mean 4.32)
- Y32T A61G -> 2.60, 2.49, 2.25 (mean 2.45)
- Y32L A61G Y105H -> nd, 4.90, nd
- D30L A61V V99C -> 6.52, 7.09, 6.13 (mean 6.58)
- F27V Y32V A61P -> 5.31, nd, 5.12 (mean 5.21)
- T28K H35K A61N -> nd, nd, nd
- A61E S63F -> nd, nd, nd
- I58D A61L V99H -> nd, nd, nd
- A61K D62Y R101P -> 3.92, nd, nd
- H35N A61W V64D -> nd, nd, nd
- G59A A61Y V64C -> nd, nd, nd
- G50Y A61N V99E -> nd, nd, nd
- D30T A61K -> nd, nd, nd
- A61G V99W G100V -> 1.59, 1.57, 1.15 (mean 1.44)
- A61D V99C R101I -> nd, 5.28, nd
- A61D G103H D107E -> 1.27, 1.32, 0.77 (mean 1.12)
- I51A G56C A61R -> 4.02, 4.79, nd (mean 4.40)
- F27S H35L A61L -> nd, nd, 5.71
- D30E A61C D62M -> nd, nd, nd
- A61F G102Q -> nd, nd, 4.36
- Y32L I58Q A61M -> 4.10, 3.93, 5.87 (mean 4.64)
- M34D W53Y A61W -> nd, nd, nd
- T28L A61S V99H -> nd, nd, 3.18
- A61I G100I G103V -> nd, nd, nd
- A61L G102M D107F -> 2.75, 2.74, 2.66 (mean 2.71)
- G50Y A61H G102P -> nd, nd, nd
- A33I A61T G104A -> nd, nd, nd
- A61F D62S Y108R -> nd, nd, nd
- M34E A61I -> nd, 5.28, nd
- F27Q G59Q A61Y -> nd, nd, nd
- M34E G50K A61F -> nd, nd, nd
- D31R A61L V99Q -> nd, 5.59, 4.80 (mean 5.20)
- S55H A61G -> nd, 4.13, nd
- A33Y A61D V64W -> nd, nd, nd
- S55M A61F Y105D -> nd, nd, nd
- A61G -> 1.93, 1.90, 1.81 (mean 1.88)
- W53A S55H A61Q -> 3.29, 3.55, 3.82 (mean 3.55)
- S57R I58Q A61F -> nd, nd, 3.74
- I58D A61R -> 2.05, 2.31, 2.21 (mean 2.19)
- F27W A61D F106Y -> 4.97, 4.58, nd (mean 4.78)
- W53C A61V R101A -> 5.16, nd, nd
- F27P G59H A61S -> nd, nd, nd
- I51H A61D -> nd, nd, nd
- I51L N54G A61D -> nd, nd, nd
- A61K G103M F106H -> nd, nd, nd
- N54V A61H D107C -> nd, 4.23, nd
- A61R V99C G102N -> nd, 5.03, nd
- N54K A61H G103C -> nd, nd, nd
- I58F A61G G103P -> nd, nd, nd
- H35K A61V D62F -> nd, nd, nd

Nonspecific signal, from three strains lacking the peptide, appeared in 21% of pairings of library AAYL51, centred on 4.54 (5% of these signals below 3.26); values are not corrected for it.
For reference, the parent read 1.86 as the reference entry and 0.88 as a member of this library.

From the AlphaSeq antibody data of Engelhart et al. 2022 (doi:10.1038/s41597-022-01779-4), copy in the FLAb collection.